# Test results published in patent US12377083B2 (WUHAN LL SCIENCE AND TECHNOLOGY DEVELOPMENT CO., LTD., priority 2019, dated 2025).
# Test system: A2058 (human melanoma cells)
# Assay: A2058 cell scratch (migration) assay with LPA
# Format: cell-based
# Conditions: 10 μM LPA, scratch area at 24 h
# Method: The activity of the compounds disclosed herein at the cell level in vitro is evaluated by A2058 (human melanoma cells, Beina Bio, BNCC341099) cell scratch assay. The inhibitory activity of the compounds against LPAR1 can be reflected by inhibition of cell scratch healing.
# A2058 cells in a T75 cm^2 cell culture flask were digested and gently pipetted into single cells, adjusted to a cell density of 4×10^5 cells/mL, and then seeded into a 24-well plate. After the cell confluence reached 80%, the cell culture plate was taken out and the original medium was discarded. Serum-free medium was then added, and the cells were starved overnight in an incubator (37° C., 5% CO2). The cell culture plate was then taken out, and cell scratches were made along the diameter of the wells using a 200 μL pipette tip. The cell culture plate was then added with 500 μL of serum-free medium and then shaken gently to wash away the residual cells on the scratched surface, and this was repeated twice. The medium was discarded and 500 μL of 1% FBS medium containing the compound was then added, and the mixture was incubated at 37° C. for 30 min. […] Olympus CKX53 was used to observe the scratches, and MShot image analysis system was used to take pictures and measure the scratch area at 0 h. […] Cell migration inhibition rate was calculated according to the following formula: […]
structure (smiles),measurement,value
"Cc1noc(-c2ccc(O[C@H]3CCC[C@H](C(=O)O)C3)cc2)c1COC(=O)N(C)C1CCCC1 (racemic) [Compound 4, (+/−)-(1S,3S)-3-(4-(4-(((cyclopentyl(methyl)carbamoyl)oxy)methyl)-3-methylisoxazol-5-yl)phenoxy)cyclohexane-1-carboxylic Acid]",Cell migration inhibition rate (%),B (B: 30-50%)
